# Legend:
# Amino acid sequences for entries named in this document (tags omitted).
# UniProt P33535, whole entry: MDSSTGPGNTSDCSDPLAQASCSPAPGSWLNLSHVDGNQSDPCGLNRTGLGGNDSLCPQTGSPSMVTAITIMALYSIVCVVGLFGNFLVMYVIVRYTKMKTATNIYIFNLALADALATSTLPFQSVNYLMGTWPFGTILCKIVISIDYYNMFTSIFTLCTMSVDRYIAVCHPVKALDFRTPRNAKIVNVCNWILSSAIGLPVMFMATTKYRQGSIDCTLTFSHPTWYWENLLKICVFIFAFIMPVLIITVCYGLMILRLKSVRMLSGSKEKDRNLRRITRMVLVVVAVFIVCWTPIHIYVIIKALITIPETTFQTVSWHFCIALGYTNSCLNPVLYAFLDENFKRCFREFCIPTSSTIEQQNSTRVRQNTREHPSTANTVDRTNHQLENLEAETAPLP
# site of PCP = test: Affinity for the PCP site, competition with (^3 H)PCP on rat brain homogenates; format: binding; details: rat brain homogenate, pH 7.7, 25° C., 1 nmole tritiated ligand
# site of TCP = test: Affinity for the TCP site, competition with (^3 H)TCP on rat brain homogenates; format: binding; details: rat brain homogenate, pH 7.7, 25° C., 1 nmole tritiated ligand; read-out: ^3 HTCP IC50
# [1] = system: cerebral cholinergic muscarinic receptor; format: binding, rat; details: ratio of IC50
# receptor of the opiates = target: T1, receptor of the opiates (Rattus norvegicus, UniProt P33535); test: Competition test with ^3 H-DHM for the receptor of the opiates; format: binding; details: ratio of IC50
# T1 construct: variable concentrations of the tested compound and a rat brain homogenate; from tissue; host or cells: rat brain homogenate
# Description: In this test, a fixed concentration of ^3 H-DHM labelled morphine was incubated in the presence of variable concentrations of the tested compound and a rat brain homogenate. The concentration of the compound preventing the fixing of 50% of ^3 H-DHM (IC50) is a measure of the affinity of the compound for the receptor of the opiates. The latter also gives the results obtained with PCP and TCP, as well as the ratios H^3 DA/^3 H-TCP, ^3 HQNB/^3 H-TCP and ^3 HDHM/^3 HTCP obtained with the different tested compounds.
smiles,measurement,setting,value
"C[C@@H]1CCCC[C@]1(c1cccs1)N1CCCCC1 (relative stereo) [compound 9, c-methyl-2-r-(piperidino-1)-1 (thienyl-2)-1 cyclohexane]",IC50,site of PCP,0.04 µM
same,IC50,site of TCP,0.019 µM
same,^3 HQNB/^3 HTCP,[1],631
same,^3 HDHM/^3 HTCP,receptor of the opiates,263

# Reference: patent US5179109A (priority 1988, dated 1993)
